Test [1] deals with N87 (EGFR-high, cMET-low). The test is described as follows: ADCC Bioassay (Promega), N87 target cells. Format: cell-based. To be noted: 10 μg/ml to 1 ng/ml, 6 hours. How it is done: (§1) The ADCC activity of the 24 cMetxEGFR bispecifics was tested to the tumor cell lines N87 (EGFR-high, cMET-low) and MKN-45 (EGFR-low, cMET-amplified). The ADCC assay was performed using the Promega ADCC Bioassay kit in 384-well plate format. Antibodies were tested in duplicate at 9 different concentrations in semi-log serial dilutions ranging from 10 μg/ml to 1 ng/ml.
(§2) Antibodies or assay medium control (no IgG) were incubated for 6 hours of induction at 37° C. with ADCC effector cells, and target cells (N87 or MKN-45). Luciferase activity was quantified using Bio-Glo luciferase reagent.

The test system of test [2] is MKN-45 (EGFR-low, cMET-amplified). Put plainly: ADCC Bioassay (Promega), MKN-45 target cells. The test is classed as cell-based. The following applies: 10 μg/ml to 1 ng/ml, 6 hours. How it is done:
as §1, §2

For the substance “cetuximab: reference anti-EGFR monoclonal antibody”, the ADCC activity entry in test [1] and in test [2] was “dose-dependent ADCC activity” throughout.
